# Target: GLP-1 R (Mus musculus, UniProt O35659)
# The chains behind the UniProt entries cited, without tags or fusion partners. Residues count along the entry.
# UniProt O35659, 22-463 limits assumed: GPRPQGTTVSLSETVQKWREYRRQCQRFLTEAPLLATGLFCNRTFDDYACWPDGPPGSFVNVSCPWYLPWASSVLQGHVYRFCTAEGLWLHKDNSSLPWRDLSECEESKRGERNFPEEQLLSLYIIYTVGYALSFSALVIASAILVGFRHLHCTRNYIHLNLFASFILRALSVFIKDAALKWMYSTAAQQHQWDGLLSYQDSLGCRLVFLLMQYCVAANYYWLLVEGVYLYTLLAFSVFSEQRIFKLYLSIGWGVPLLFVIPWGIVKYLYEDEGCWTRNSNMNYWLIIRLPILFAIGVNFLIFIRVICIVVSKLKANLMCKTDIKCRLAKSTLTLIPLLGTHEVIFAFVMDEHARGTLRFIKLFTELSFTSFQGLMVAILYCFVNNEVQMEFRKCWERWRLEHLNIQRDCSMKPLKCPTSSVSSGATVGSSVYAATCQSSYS
# Assay: Cerep cellular assay, stimulation of cAMP levels, GLP-1 (murine cell line)
# Conditions: n.c. = EC50 not calculable
row,Compound,EC50 GLP-1 R (nM)
1,CCCCCCCCCCCCO[C@@H]1O[C@H](C(=O)NCCCC[C@H](NC(=O)[C@H](CC(=O)O)NC(=O)[C@H](CC(C)C)NC(=O)[C@H](Cc2ccc(O)cc2)NC(=O)[C@H](CCCCN)NC(=O)[C@H](CO)NC(=O)[C@H](Cc2ccc(O)cc2)NC(=O)[C@H](CC(=O)O)NC(=O)[C@H](CO)NC(=O)[C@@H](NC(=O)[C@H](Cc2ccccc2)NC(=O)[C@@H](NC(=O)CNC(=O)[C@H](CCC(N)=O)NC(=O)C(C)(C)NC(=O)[C@@H](N)Cc2cnc[nH]2)[C@@H](C)O)[C@@H](C)O)C(=O)N[C@@H](CCCCNC(=N)N)C(=O)NC(C)(C)C(N)=O)[C@@H](O)[C@H](O)[C@H]1O,n.c.
2,CCCCCCCCCCCCO[C@@H]1O[C@H](C(=O)NCCCC[C@H](NC(=O)[C@H](CCCNC(=N)N)NC(=O)[C@H](CCCNC(=N)N)NC(=O)[C@H](CO)NC(=O)[C@H](CC(=O)O)NC(=O)[C@H](CC(C)C)NC(=O)[C@H](Cc2ccc(O)cc2)NC(=O)[C@H](CCCCN)NC(=O)[C@H](CO)NC(=O)[C@H](Cc2ccc(O)cc2)NC(=O)[C@H](CC(=O)O)NC(=O)[C@H](CO)NC(=O)[C@@H](NC(=O)[C@H](Cc2ccccc2)NC(=O)[C@@H](NC(=O)CNC(=O)[C@H](CCC(N)=O)NC(=O)[C@H](CO)NC(=O)[C@@H](N)Cc2cnc[nH]2)[C@@H](C)O)[C@@H](C)O)C(=O)NC(C)(C)C(N)=O)[C@@H](O)[C@H](O)[C@H]1O,n.c.
3,CCCCCCCCCCCCO[C@@H]1O[C@H](C(=O)NCCCC[C@H](NC(=O)[C@H](CC(=O)O)NC(=O)[C@H](CC(C)C)NC(=O)[C@H](Cc2ccc(O)cc2)NC(=O)[C@H](CCCCN)NC(=O)[C@H](CO)NC(=O)[C@H](Cc2ccc(O)cc2)NC(=O)[C@H](CC(=O)O)NC(=O)[C@H](CO)NC(=O)[C@@H](NC(=O)[C@H](Cc2ccccc2)NC(=O)[C@@H](NC(=O)CNC(=O)[C@H](CCC(N)=O)NC(=O)C(C)(C)NC(=O)[C@@H](N)Cc2cnc[nH]2)[C@@H](C)O)[C@@H](C)O)C(=O)NC(C)(C)C(=O)N[C@@H](CCCNC(=N)N)C(N)=O)[C@@H](O)[C@H](O)[C@H]1O,n.c.
4,CCCCCCCCCCCCO[C@@H]1O[C@H](C(=O)NCCCC[C@H](NC(=O)C(C)(C)NC(=O)[C@H](CCCNC(=N)N)NC(=O)C(C)(C)NC(=O)[C@H](CC(=O)O)NC(=O)[C@H](CC(C)C)NC(=O)[C@H](Cc2ccc(O)cc2)NC(=O)[C@H](CCCCN)NC(=O)[C@H](CO)NC(=O)[C@H](Cc2ccc(O)cc2)NC(=O)[C@H](CC(=O)O)NC(=O)[C@H](CO)NC(=O)[C@@H](NC(=O)[C@H](Cc2ccccc2)NC(=O)[C@@H](NC(=O)CNC(=O)[C@H](CCC(N)=O)NC(=O)C(C)(C)NC(=O)[C@@H](N)Cc2cnc[nH]2)[C@@H](C)O)[C@@H](C)O)C(N)=O)[C@@H](O)[C@H](O)[C@H]1O,n.c.
5,CCCCCCCCCCCCO[C@@H]1O[C@H](C(=O)NCCCC[C@H](NC(=O)[C@H](CC(=O)O)NC(=O)[C@H](CC(C)C)NC(=O)[C@H](Cc2ccc(O)cc2)NC(=O)[C@H](CCCCN)NC(=O)[C@H](CO)NC(=O)[C@H](Cc2ccc(O)cc2)NC(=O)[C@H](CC(=O)O)NC(=O)[C@H](CO)NC(=O)[C@@H](NC(=O)[C@H](Cc2ccccc2)NC(=O)[C@@H](NC(=O)CNC(=O)[C@H](CCC(N)=O)NC(=O)C(C)(C)NC(=O)[C@@H](N)Cc2cnc[nH]2)[C@@H](C)O)[C@@H](C)O)C(=O)N[C@@H](CCCNC(=N)N)C(=O)NC(C)(C)C(N)=O)[C@@H](O)[C@H](O)[C@H]1O,n.c.
6,CCCCCCCCCCCCO[C@@H]1O[C@H](C(=O)NCCCC[C@H](NC(=O)[C@H](CC(=O)O)NC(=O)[C@H](CC(C)C)NC(=O)[C@H](Cc2ccc(O)cc2)NC(=O)[C@H](CCCCN)NC(=O)[C@H](CO)NC(=O)[C@H](Cc2ccc(O)cc2)NC(=O)[C@H](CC(=O)O)NC(=O)[C@H](CO)NC(=O)[C@@H](NC(=O)[C@H](Cc2ccccc2)NC(=O)[C@@H](NC(=O)CNC(=O)[C@H](CCC(N)=O)NC(=O)C(C)(C)NC(=O)[C@@H](N)Cc2cnc[nH]2)[C@@H](C)O)[C@@H](C)O)C(=O)NC(C)(C)C(N)=O)[C@@H](O)[C@H](O)[C@H]1O,n.c.
7,CCCCCCCCCCCCO[C@@H]1O[C@H](C(=O)NCCCC[C@H](NC(=O)C(C)(C)NC(=O)[C@H](CCCNC(=N)N)NC(=O)[C@H](CC(=O)O)NC(=O)[C@H](CC(C)C)NC(=O)[C@H](Cc2ccc(O)cc2)NC(=O)[C@H](CCCCN)NC(=O)[C@H](CO)NC(=O)[C@H](Cc2ccc(O)cc2)NC(=O)[C@H](CC(=O)O)NC(=O)[C@H](CO)NC(=O)[C@@H](NC(=O)[C@H](Cc2ccccc2)NC(=O)[C@@H](NC(=O)CNC(=O)[C@H](CCC(N)=O)NC(=O)C(C)(C)NC(=O)[C@@H](N)Cc2cnc[nH]2)[C@@H](C)O)[C@@H](C)O)C(N)=O)[C@@H](O)[C@H](O)[C@H]1O,n.c.
8,CCCCCCCCCCCCO[C@@H]1O[C@H](C(=O)NCCCC[C@H](NC(=O)[C@H](CC(=O)O)NC(=O)[C@H](CC(C)C)NC(=O)[C@H](Cc2ccc(O)cc2)NC(=O)[C@H](CCCCN)NC(=O)[C@H](CO)NC(=O)[C@H](Cc2ccc(O)cc2)NC(=O)[C@H](CC(=O)O)NC(=O)[C@H](CO)NC(=O)[C@@H](NC(=O)[C@H](Cc2ccccc2)NC(=O)[C@@H](NC(=O)CNC(=O)[C@H](CCC(N)=O)NC(=O)C(C)(C)NC(=O)[C@@H](N)Cc2cnc[nH]2)[C@@H](C)O)[C@@H](C)O)C(=O)N[C@@H](CCCNC(=N)N)C(=O)N[C@@H](CCCNC(=N)N)C(=O)NC(C)(C)C(N)=O)[C@@H](O)[C@H](O)[C@H]1O,n.c.

# Source: patent publication US11541028B2, “Peptide pharmaceuticals for treatment of NASH and other disorders” (Mederis Diabetes LLC, priority 2018, dated 2023)
